# EPAC2 antag – blocks human EPAC2 exchange factor | Q8WZA2 | EPAC2 GEF exchange of Rap1B-BODIPY-GDP, fluorescence | Potency, µM (titrated, usually from 114 µM), for the others: at the highest dose activity, negative = inhibition, hits mostly inhibitors | 0.18% of 360,000 active; note: % is set by controls: 0 for no effect and ±100 for the full control effect; nearly all actives have a fitted effect of over 45% in size
# Rango-impB inh – inhibitors of Rango-importin beta complex formation | Potency, µM (top dose mostly 92.2 µM), for the others: at the top dose inhibition of complex formation | Rango CFP/YFP FRET sensor + importin beta, 45 min | AID 540263 | 0.031% of 340,000 active | Q14974; calls by dose curve;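 note: 0% = DMSO wells and 100% = buffer wells lacking importin beta; nearly all actives have a fitted effect of over 15% in size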
#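 FRET biosensor Rango (snurportin 1 IBB between N-terminal EYFP and C-terminal Cerulean), 50 nM in PBS/1 mM DTT/0.02% Tween-20/0.1% BSA, preincubated 5 min RT with compound; 0.125 microM importin beta added, 45 min RT, CFP/YFP FRET ratio read.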
# EPAC1 antagonist – antagonists of human EPAC1; O95398; EPAC1 GEF assay, Rap1b-BODIPY-GDP exchange fluorescence; Potency, µM (series often up to 115 µM), for the others: at the top dose activity change, negative = inhibition, usual class: inhibitors; 0.14% of 360,000 active;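 note: plate controls were vehicle for no effect and positive control for full effect; nearly all actives have a fitted effect of over 50% in size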
# EPAC2 agonist – agonists of human EPAC2 (RAPGEF4) | Q8WZA2 | EPAC2 activation, biochemical qHTS; response scale: 100% = 6.5 mM cAMP response | Potency, µM (series often up to 154 µM), without a hit: at the highest dose activation, hits mostly activators | 0.079% of 360,000 active; note: nearly all actives have a fitted effect of over 50% in size
#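 Fluorescence exchange assay: 100 nM EPAC2 with 250 nM RAP1B-BODIPY-GDP and 50 uM GDP; compounds tested as a concentration-titration series (qHTS). Loss of Rap1-bound BODIPY-GDP fluorescence read at 480/540 nm; data normalized to 6.5 mM cAMP.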
# EPAC1 ag – EPAC1 (human) agonism | O95398 | EPAC1 agonist qHTS, biochemical assay; response scale: 100% = response to 6.5 mM cAMP | Potency, µM (doses to about 154 µM), for the others: at the top dose activation, actives largely listed as activators | 0.073% of 360,000 active | AID 720707; note: nearly all actives have a fitted effect of over 60% in size
#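 Compounds were pinned as a concentration titration into mixtures of EPAC1 (100 nM), BODIPY-GDP-loaded Rap1B (250 nM) and GDP (50 uM). After 5 min at room temperature, fluorescence was followed for 30 min; activity was scaled to 6.5 mM cAMP.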
# Rango release inh – inhibition of RanGTP-driven Rango-importin beta dissociation; 0.071% of 340,000 active; O95149+P62826; Biochemical FRET Rango-importin beta, RanGTP-induced dissociation; Potency, µM (series often up to 46.1 µM), without a hit: at the top dose activity change, negative = inhibition; calls by dose curve; note: % of control where 0% means no effect; nearly all actives have a fitted effect of over 45% in size
#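 Quantitative HTS using a FRET biosensor: 0.1 uM Rango, 0.25 uM importin beta, 0.6 uM Ran, 2 mM GTP, 0.2 uM RCC1 final, PBS with DTT, Tween-20 and BSA. Post-read taken 45 min after Ran addition.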
# An asterisk follows results filed as active; ? = inconclusive. In the library only some 0.48% were active in any assay of this set; here they are far more common. Unless noted, calls come from the whole dose curve; as a rule, active = well fitted curve in the direction sought with a large enough effect; inconclusive = small, poorly fitted or top-dose-only effect, or another doubt; inactive = no such curve, though single readings can be large; an effect the other way counts as inactive or inconclusive. Potency is the fitted concentration of half-maximal effect.
(1) Cc1[nH]n(-c2ccccc2)c(=O)c1C(c1cccc([N+](=O)[O-])c1O)c1c(C)[nH]n(-c2ccccc2)c1=O
(2) Cc1cc(C(C#N)c2ccc(Cl)cc2)c(Cl)cc1NC(=O)c1cc(I)cc(I)c1O (stereo unspecified)
(3) CC[C@H](C)/C=C(C)/C=C/C1=CC2=C(Cl)C(=O)[C@](C)(OC(C)=O)C(=O)C2=CO1
(4) CCOC(=O)C1CCCN(c2ccc([N+](=O)[O-])c3nonc23)C1 (stereo unspecified)
(5) COc1cc(/C=N/NC(=O)c2cnccn2)cc(OC)c1OC
(6) COC(=O)C1C2c3ccccc3C(c3ccccc32)C1(C)C(=O)OC (stereo unspecified)
(7) COC(=O)C1=C(C(=O)OC)C2c3ccccc3C1c1ccccc12
(8) COP(=O)(OC)c1nc(-c2ccc([N+](=O)[O-])cc2)oc1N1CCCCC1
Screen / compound no.	1	2	3	4	5	6	7	8
Rango release inh	-9%	-9%	?	?	25%	-4%	2%	5%
EPAC2 agonist	1%	-11%	10%	100µM*	-1%	7%	6%	-4%
Rango-impB inh	9%	7%	?	?	4%	1%	0%	29µM*
EPAC1 antagonist	56µM*	?	?	79%	-4%	4%	-20%	-14%
EPAC2 antag	-11%	50µM*	8.9µM*	118%	3%	32µM*	-19%	-13%
EPAC1 ag	0%	-16%	12%	89µM*	-5%	2%	1%	2%

(9) COP(=O)(OC)c1nc(-c2cccc3ccccc23)oc1N1CCCCC1
(10) O=C1NC(=O)N(Cc2ccco2)C(=O)/C1=C/c1ccc(-c2cccc([N+](=O)[O-])c2)o1
(11) C=CCN1C(=O)NC(=O)/C(=C\c2ccc(-c3ccccc3[N+](=O)[O-])o2)C1=O
(12) Cc1cccc(OCCn2cccc2/C=C2/C(=O)NC(=O)N(Cc3ccco3)C2=O)c1
(13) COc1ccc(CN2C(=O)NC(=O)/C(=C/c3ccc([N+](=O)[O-])s3)C2=O)cc1
(14) O=C1NC(=O)N(Cc2ccco2)C(=O)/C1=C\c1cccn1CCOc1ccc(Cl)cc1
(15) COc1ccccc1N1C(=O)NC(=O)/C(=C/c2ccc([N+](=O)[O-])s2)C1=O
(16) O=C1NC(=O)N(Cc2ccc(F)cc2)C(=O)/C1=C\c1ccc([N+](=O)[O-])s1
Screen / compound no.	9	10	11	12	13	14	15	16
Rango release inh	-11%	?	-8%	?	-24%	-14%	8%	1%
EPAC2 agonist	8%	0%	0%	1%	-10%	5%	5%	-4%
Rango-impB inh	?	-1%	0%	?	?	?	-2%	?
EPAC1 antagonist	-1%	50µM*	-20%	?	40µM*	50µM*	?	20µM*
EPAC2 antag	-5%	-27%	-6%	-21%	3%	-8%	-1%	0%
EPAC1 ag	12%	4%	14%	2%	-7%	-12%	2%	-9%

(17) COc1ccc(CN2C(=O)NC(=O)/C(=C\c3ccco3)C2=O)cc1
(18) CCN(CC)c1ccc(C=NN2CCCCCC2)cc1
(19) Cc1ccc(C(O)P(=O)(OCCC(C)C)c2ccc(N(C)C)cc2)cc1 (stereo unspecified)
(20) CCCCCCC1CC(C)(C(=O)CNc2nncs2)OC1=O (stereo unspecified)
(21) CCOc1cc(-c2c(C#N)c(=O)[nH]c3c2c(C)nn3-c2ccc(F)cc2)ccc1O
(22) CCOc1ccccc1-n1c(O)c(C=Nc2ccc(N(CC)CC)cc2)c(=O)[nH]c1=O
(23) CCN(CC)c1ccc(N=Cc2c(O)n(-c3ccccc3C)c(=O)[nH]c2=O)cc1
(24) CCN(CC)c1ccc(N=Cc2c(O)n(-c3ccccc3)c(=O)[nH]c2=O)cc1
(25) Cc1cc(-c2n[nH]c(=S)n2CC(C)C)cs1
Screen / compound no.	17	18	19	20	21	22	23	24	25
Rango release inh	-26%	3%	9%	5%	-2%	?	?	?	12%
EPAC2 agonist	4%	-10%	-14%	-3%	-15%	100µM*	89µM*	-10%	11%
Rango-impB inh	?	?	1%	2%	-1%	?	?	?	-3%
EPAC1 antagonist	50µM*	11%	3%	-6%	?	8%	-1%	-9%	-17%
EPAC2 antag	2%	4%	?	?	-4%	32%	9%	40%	-5%
EPAC1 ag	-6%	-6%	-20%	5%	-3%	71µM*	100µM*	-18%	-3%

# A second format for 3 compounds above.
entry | SMILES | Rango release inh | EPAC2 agonist | Rango-impB inh | EPAC1 antagonist | EPAC2 antag | EPAC1 ag
20 | CCCCCCC1CC(C)(C(=O)CNc2nncs2)OC1=O (stereo unspecified) | 5% | -3% | 2% | -6% | ? | 5%
21 | CCOc1cc(-c2c(C#N)c(=O)[nH]c3c2c(C)nn3-c2ccc(F)cc2)ccc1O | -2% | -15% | -1% | ? | -4% | -3%
22 | CCOc1ccccc1-n1c(O)c(C=Nc2ccc(N(CC)CC)cc2)c(=O)[nH]c1=O | ? | 100µM* | ? | 8% | 32% | 71µM*

# Compound activity (PubChem)
